# In patent publication US8653083B2, “Hedgehog pathway antagonists to treat disease” (The Johns Hopkins University, priority 2005, dated 2014):
# Test system: 22RV1 xenografts
# Assay: 22RV1 human prostate cancer xenografts in athymic mice, tumor growth
# Format: in vivo
# Conditions: cyclopamine comparator, dose not given
structure (smiles),measurement,value
CC1=C2C[C@H]3[C@@H](CC=C4C[C@@H](O)CC[C@@]43C)[C@@H]2CC[C@]12O[C@@H]1C[C@H](C)CN[C@H]1[C@H]2C [Cyclopamine],tumor growth of established xenografts,complete and durable regression
